Cyclic peptide permeability, from CycPeptMPDB

PAMPA is the parallel artificial membrane permeability assay, which has no cells and reads passive diffusion. Permeability is given as log10 of P in cm/s; higher (less negative) is more permeable.

| structure (SMILES) | PAMPA (log10 cm/s) |
|---|---|
| CC(=O)N1CCC[C@@H]1C(=O)N(C)[C@@H](CC(C)C)C(=O)N[C@@H]1C(=O)N[C@@H](CC(C)C)C(=O)N[C@@H](CC(C)C)C(=O)N(C)[C@H](CC(C)C)C(=O)N(C)[C@H](C)C(=O)N[C@@H](CC(C)C)C(=O)N2CCC[C@H]2C(=O)O[C@@H]1C | -5.68 |
| CC(=O)N1CCC[C@H]1C(=O)N(C)[C@@H](CC(C)C)C(=O)N[C@@H]1C(=O)N(C)[C@@H](CC(C)C)C(=O)N[C@H](CC(C)C)C(=O)N[C@H](CC(C)C)C(=O)N(C)[C@H](C)C(=O)N[C@H](CC(C)C)C(=O)N2CCC[C@@H]2C(=O)O[C@@H]1C | -6.90 |
| CC(=O)N1CCC[C@H]1C(=O)N(C)[C@@H](CC(C)C)C(=O)N[C@@H]1C(=O)N[C@@H](CC(C)C)C(=O)N[C@@H](CC(C)C)C(=O)N[C@H](CC(C)C)C(=O)N(C)[C@H](C)C(=O)N[C@H](CC(C)C)C(=O)N2CCC[C@H]2C(=O)O[C@@H]1C | -6.66 |
| CC(=O)N1CCC[C@@H]1C(=O)N(C)[C@@H](CC(C)C)C(=O)N[C@@H]1C(=O)N[C@@H](CC(C)C)C(=O)N[C@@H](CC(C)C)C(=O)N(C)[C@H](CC(C)C)C(=O)N(C)[C@@H](C)C(=O)N[C@@H](CC(C)C)C(=O)N2CCC[C@H]2C(=O)O[C@@H]1C | -6.11 |
| CC(=O)N1CCC[C@H]1C(=O)N(C)[C@@H](CC(C)C)C(=O)N[C@@H]1C(=O)N[C@H](CC(C)C)C(=O)N(C)[C@H](CC(C)C)C(=O)N[C@H](CC(C)C)C(=O)N[C@@H](C)C(=O)N[C@@H](CC(C)C)C(=O)N2CCC[C@H]2C(=O)O[C@@H]1C | -6.12 |
| CC(=O)N1CCC[C@@H]1C(=O)N(C)[C@@H](CC(C)C)C(=O)N[C@@H]1C(=O)N[C@H](CC(C)C)C(=O)N(C)[C@H](CC(C)C)C(=O)N[C@@H](CC(C)C)C(=O)N(C)[C@@H](C)C(=O)N[C@H](CC(C)C)C(=O)N2CCC[C@H]2C(=O)O[C@@H]1C | -5.20 |
| CC(=O)N1CCC[C@@H]1C(=O)N(C)[C@@H](CC(C)C)C(=O)N[C@@H]1C(=O)N(C)[C@@H](CC(C)C)C(=O)N[C@@H](CC(C)C)C(=O)N(C)[C@H](CC(C)C)C(=O)N[C@@H](C)C(=O)N[C@H](CC(C)C)C(=O)N2CCC[C@@H]2C(=O)O[C@@H]1C | -6.34 |
| CC(=O)N1CCC[C@H]1C(=O)N(C)[C@H](CC(C)C)C(=O)N[C@@H]1C(=O)N[C@@H](CC(C)C)C(=O)N[C@H](CC(C)C)C(=O)N(C)[C@H](CC(C)C)C(=O)N[C@H](C)C(=O)N[C@@H](CC(C)C)C(=O)N2CCC[C@H]2C(=O)O[C@@H]1C | -6.43 |
| CC(=O)N1CCC[C@@H]1C(=O)N(C)[C@H](CC(C)C)C(=O)N[C@@H]1C(=O)N[C@@H](CC(C)C)C(=O)N[C@@H](CC(C)C)C(=O)N(C)[C@H](CC(C)C)C(=O)N(C)[C@H](C)C(=O)N[C@H](CC(C)C)C(=O)N2CCC[C@H]2C(=O)O[C@@H]1C | -6.48 |
| CC(=O)N1CCC[C@@H]1C(=O)N(C)[C@@H](CC(C)C)C(=O)N[C@@H]1C(=O)N(C)[C@@H](CC(C)C)C(=O)N[C@@H](CC(C)C)C(=O)N(C)[C@@H](CC(C)C)C(=O)N(C)[C@@H](C)C(=O)N[C@@H](CC(C)C)C(=O)N2CCC[C@@H]2C(=O)O[C@@H]1C | -5.62 |
| CC(=O)N1CCC[C@H]1C(=O)N(C)[C@H](CC(C)C)C(=O)N[C@@H]1C(=O)N[C@H](CC(C)C)C(=O)N[C@H](CC(C)C)C(=O)N(C)[C@H](CC(C)C)C(=O)N(C)[C@@H](C)C(=O)N[C@H](CC(C)C)C(=O)N2CCC[C@@H]2C(=O)O[C@@H]1C | -5.65 |
| CC(=O)N1CCC[C@H]1C(=O)N(C)[C@@H](CC(C)C)C(=O)N[C@@H]1C(=O)N[C@@H](CC(C)C)C(=O)N(C)[C@H](CC(C)C)C(=O)N(C)[C@H](CC(C)C)C(=O)N[C@H](C)C(=O)N[C@@H](CC(C)C)C(=O)N2CCC[C@@H]2C(=O)O[C@@H]1C | -5.04 |
| CC(=O)N1CCC[C@@H]1C(=O)N(C)[C@H](CC(C)C)C(=O)N[C@@H]1C(=O)N[C@H](CC(C)C)C(=O)N[C@H](CC(C)C)C(=O)N[C@H](CC(C)C)C(=O)N[C@H](C)C(=O)N[C@@H](CC(C)C)C(=O)N2CCC[C@@H]2C(=O)O[C@@H]1C | -8.70 |
| CC(=O)N[C@@H]1C(=O)N2CCC[C@H]2C(=O)N(C)[C@H](CC(C)C)C(=O)N[C@H](CC(C)C)C(=O)N[C@H](CC(C)C)C(=O)N(C)[C@H](CC(C)C)C(=O)N(C)[C@@H](C)C(=O)N[C@@H](CC(C)C)C(=O)N2CCC[C@@H]2C(=O)O[C@@H]1C | -6.44 |

Repeated from above, the 2 entries with the highest PAMPA:

| structure (SMILES) | PAMPA (log10 cm/s) |
|---|---|
| CC(=O)N1CCC[C@H]1C(=O)N(C)[C@@H](CC(C)C)C(=O)N[C@@H]1C(=O)N[C@@H](CC(C)C)C(=O)N(C)[C@H](CC(C)C)C(=O)N(C)[C@H](CC(C)C)C(=O)N[C@H](C)C(=O)N[C@@H](CC(C)C)C(=O)N2CCC[C@@H]2C(=O)O[C@@H]1C | -5.04 |
| CC(=O)N1CCC[C@@H]1C(=O)N(C)[C@@H](CC(C)C)C(=O)N[C@@H]1C(=O)N[C@H](CC(C)C)C(=O)N(C)[C@H](CC(C)C)C(=O)N[C@@H](CC(C)C)C(=O)N(C)[C@@H](C)C(=O)N[C@H](CC(C)C)C(=O)N2CCC[C@H]2C(=O)O[C@@H]1C | -5.20 |

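The data file gives no further conditions (lipid, pH, time, direction or concentration), and values from different papers need not be comparable. Other peptides of the study may be missing here. Entries at the database's floor value (log10 P of -10) are not listed.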

Collected by the curators of CycPeptMPDB (Li et al. 2023) from Kelly et al. 2021, doi:10.1021/jacs.0c06115.